Assay results reported in PubChem BioAssay AID2555 (Johns Hopkins Ion Channel Center, 2010).
The list shows a part of the results, in another mix than the full data. Calls of active or inactive are those of the source.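 How the source made its calls: active means primary screen hit whose calcium fluorescence ratio, in both repeats, exceeds the weak agonist control mean by 3 SD; inactive means the rest.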

These molecules were tested on TRPC4 beta (transient receptor potential cation channel C4), mouse (assay: positive allosteric modulators of mouse TRPC4, confirmation, cell-based, Fluo-4, HEK293 TRPC4beta/mu-opioid (AID 2555)). Details: DAMGO EC20, Fluo-4 calcium flux, at 10 µM; active compounds read high.

| SMILES | potentiation |
| --- | --- |
| CCN(CC)CCCOC(=O)C(O)(c1ccccc1)c1ccccc1 | active: 14% |
| CN(C)CCOC(=O)C(O)(c1ccccc1)C1CCCC1 (stereo not drawn) | inactive |
| CN(C)C1(CNC(=O)c2ccc(Cl)c(S(N)(=O)=O)c2)CCCCC1 | inactive |
